# Assay results reported in patent publication EP1242012B1, “IMPROVED TRANSDERMAL CONTRACEPTIVE DELIVERY SYSTEM AND PROCESS” (priority 1999, dated 2001).
# Where “and” joins values, the source holds several entries; their conditions need not be identical. Equal values may be shown once.
# System: albino guinea pigs
# Assay: Buehler sensitization test (induction and challenge)
# [1] = individual guinea pig, 0.4 mL of 0.1 % DNCB in acetone, directly after removal, first figure of cell
# [2] = individual guinea pig, 0.4 mL of 0.1 % DNCB in acetone, directly after removal, second figure of cell
smiles,measurement,setting,value
"O=[N+]([O-])c1ccc(Cl)c([N+](=O)[O-])c1 [DNCB, dinitrochlorobenzene]","signs of erythema or edema, challenge phase","guinea pigs, challenge day 28, 6 hours exposure",exhibited signs of erythema and/or edema
same,"Erythema score, Induction Phase Week 1",[1],0/0
same,"Erythema score, Induction Phase Week 2",[1],0 and 0/0 and 1
same,"Edema score, Induction Phase Week 1",[2],0/0
same,"Edema score, Induction Phase Week 2",[2],2 and 0/0 and 1 and 0
same,"Edema score, Induction Phase Week 3",[2],2 and 1/1 and 1 and 3
same,"Erythema score, Week 5 Challenge Phase 24 hr","individual guinea pig, challenge 0.05% DNCB in acetone, 24 ± 2 hours after removal, first figure of cell",2 and 2/2 and 1
same,"Edema score, Week 5 Challenge Phase 24 hr","individual guinea pig, challenge 0.05% DNCB in acetone, 24 ± 2 hours after removal, second figure of cell",1 and 2/2 and 3 and 2
same,"Erythema score, Week 5 Challenge Phase 48hr","individual guinea pig, challenge 0.05% DNCB in acetone, 48 ± 2 hours after removal, first figure of cell",2 and 1/1 and 1
same,"Edema score, Week 5 Challenge Phase 48hr","individual guinea pig, challenge 0.05% DNCB in acetone, 48 ± 2 hours after removal, second figure of cell",0 and 1/1 and 2 and 1
same,animals with signs of erythema and edema following the second induction application,"positive control group, 5 guinea pigs",Two animals in the positive control group exhibited signs of erythema and edema
